Biological target: human Cat S (Homo sapiens (Human), UniProt P25774)
Experiment: Cathepsin enzyme inhibition assay (human Cat S)
Format: biochemical
Conditions: enzyme 1 nM, substrate Z-Val-Val-Arg-AMC 20 μM, pH 6.5
Procedure: Cathepsin Enzyme Inhibition Assay
Enzyme activity is measured by observing the increase in fluorescence intensity caused by cleavage of a peptide substrate containing a fluorophore whose emission is quenched in the intact peptide.
Assay buffer: 100 mM potassium phosphate pH 6.5, EDTA-Na 5 mM, Triton X-100 0.001%, DTT 5 mM.
Enzymes (all at 1 nM): human and mouse Cathepsin S, Cat K, Cat B, Cat L.
Substrate (20 μM): Z-Val-Val-Arg-AMC, except for Cat K which uses Z-Leu-Arg-AMC (both from Bachem).
Excitation 360 nm, Emission 465 nm.
Enzyme is added to the substance dilutions in 96-well microtitre plates and the reaction is started with substrate. […] IC50 are calculated by standard methods.
Inhibition of human Cat S, mouse Cat S, human Cat K, human Cat B, human Cat L and mouse Cat L have been measured separately.

Chains of the proteins cited; added tags and fusions are not shown. Residues count along the entry.
UniProt P25774, 115-331: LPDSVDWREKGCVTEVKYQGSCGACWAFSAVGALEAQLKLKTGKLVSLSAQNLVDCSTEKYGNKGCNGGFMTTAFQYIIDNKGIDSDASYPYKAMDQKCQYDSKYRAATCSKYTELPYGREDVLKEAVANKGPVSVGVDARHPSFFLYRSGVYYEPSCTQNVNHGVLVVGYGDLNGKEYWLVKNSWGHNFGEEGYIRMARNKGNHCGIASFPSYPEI

| IC50 [nM] | Compound |
| --- | --- |
| 3.16 | N#CC1(NC(=O)[C@@H]2C[C@@H](S(=O)(=O)c3ccc(OCC(F)(F)F)cc3Cl)CN2C(=O)C2(c3ccc(Cl)cn3)CNC2)CC1 [Example 6, (2S,4R)-1-[3-(5-Chloro-pyridin-2-yl)-azetidine-3-carbonyl]-4-[2-chloro-4-(2,2,2-trifluoro-ethoxy)-benzenesulfonyl]-pyrrolidine-2-carboxylic acid (1-cyano-cyclopropyl)-amide] |
| 1.08 | C[C@H](Oc1ccc(S(=O)(=O)[C@@H]2C[C@@H](C(=O)NC3(C#N)CC3)N(C(=O)C3(c4ncc(Cl)cc4F)CCN3C(=O)OC(C)(C)C)C2)c(Cl)c1)C(F)(F)F (stereo partly drawn) [Example 28, tert-butyl 2-(5-chloro-3-fluoropyridin-2-yl)-2-((2S,4R)-4-(2-chloro-4-((S)-1,1,1-trifluoropropan-2-yloxy)phenylsulfonyl)-2-(1-cyanocyclopropylcarbamoyl)pyrrolidine-1-carbonyl)azetidine-1-carboxylate] |

From patent US8822505B2, “Azetidine derivatives” (Hoffmann-La Roche Inc., priority 2012, dated 2014)
